Our source for the FXR fold induction values is patent publication US12552755B2, “Cinnamic amide derivative having FXR activating effect, pharmaceutical composition containing the same as active ingredient, and method for preparing the same” (KYUNGSUNG UNIVERSITY INDUSTRY COOPERATION FOUNDATION, priority 2019, dated 2026).

The target of this data set is T1, farnesol X receptor (FXR) (Homo sapiens, UniProt Q96RI1).
T1 construct: endogenous in cells; host or cells: HepG2
T1 sequence (Q96RI1 1-486): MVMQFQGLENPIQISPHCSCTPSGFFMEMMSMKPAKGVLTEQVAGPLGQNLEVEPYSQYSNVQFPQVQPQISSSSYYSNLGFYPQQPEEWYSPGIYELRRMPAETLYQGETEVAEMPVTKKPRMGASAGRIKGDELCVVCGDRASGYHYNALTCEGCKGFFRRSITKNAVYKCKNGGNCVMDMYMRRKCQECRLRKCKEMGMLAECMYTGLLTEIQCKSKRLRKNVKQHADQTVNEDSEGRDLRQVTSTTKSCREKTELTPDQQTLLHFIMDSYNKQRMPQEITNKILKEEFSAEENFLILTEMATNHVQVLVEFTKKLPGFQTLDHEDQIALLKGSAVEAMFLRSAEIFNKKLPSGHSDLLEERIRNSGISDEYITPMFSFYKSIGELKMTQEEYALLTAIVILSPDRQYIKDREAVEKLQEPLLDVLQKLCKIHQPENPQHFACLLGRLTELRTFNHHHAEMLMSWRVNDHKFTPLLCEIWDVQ
The experiment in a line: Farnesol X receptor (FXR) reporter gene assay (dual luciferase) in HepG2 cells. The data set is classed as cell-based. To be noted: drug treatment 24 hours, firefly/renilla luciferase ratio, Con = 1.00. As for the experimental part: HepG2 cells were purchased from ATCC (Manassas, VA, USA) and cultured in Dulbecco's modified Eagle's medium (DMEM; Hyclone) containing 10% fetal bovine serum (FBS, Hyclone, Logan, UT, USA), 50 units/mL penicillin (Hyclone) and 50 μg/mL streptomycin (Hyclone). All cells were cultured to have a confluency of about 80% to 90% under the conditions of 37° C. and 5% Co2.
In order to measure FXR transcription factor activity, HepG2 cells (1×10^5 cells/well) were cultured in a 48-well cell culture plate (SPL Life Science Co., Gyeonggido, Korea) for 20 hours and then transduced using Lipofectamin L3000 (Invitrogen, San Diego, CA, USA). Luciferase is an enzyme that catalyzes light-emitting reactions. […] After the reaction was completed, the drug-treated culture medium was discarded, and lysis buffer was added at 0.4 ml/well to remove the cells, then the cells were dispensed into a 96-well white plate (SPL Life Science Co.), and the luminescence level was measured using the Dual-glo Luciferase Assay System (Promega, Madison, WI, USA). For the firefly luciferase activity (to see the level of FXR expression) and renilla luciferase activity (to provide a reference value by showing constant expression), the luminescence level was measured using the GloMax Multi Detection System (Promega) and then the relative ratio (firefly luciferase activity/renilla luciferase activity) was calculated.
(Reporter assays use an easily measured gene product as a stand-in for the process of interest.)

In the case of `CC(C)c1onc(-c2c(Cl)cccc2Cl)c1COc1ccc(/C=C/c2cccc(C(=O)O)c2)c(Cl)c1` [GW4064, reference compound], the FXR fold induction by setting is: (dose 5 uM) 2.92; (dose 10 uM) 3.96.
